From ChEMBL document CHEMBL1128900, “Non-peptidic inhibitors of neutral endopeptidase 24.11 1. Discovery and optimization of potency” (Bioorg Med Chem Lett, 1995)

Biological target: T1, Neprilysin (Rattus norvegicus, UniProt P07861)
T1 sequence (P07861 whole entry): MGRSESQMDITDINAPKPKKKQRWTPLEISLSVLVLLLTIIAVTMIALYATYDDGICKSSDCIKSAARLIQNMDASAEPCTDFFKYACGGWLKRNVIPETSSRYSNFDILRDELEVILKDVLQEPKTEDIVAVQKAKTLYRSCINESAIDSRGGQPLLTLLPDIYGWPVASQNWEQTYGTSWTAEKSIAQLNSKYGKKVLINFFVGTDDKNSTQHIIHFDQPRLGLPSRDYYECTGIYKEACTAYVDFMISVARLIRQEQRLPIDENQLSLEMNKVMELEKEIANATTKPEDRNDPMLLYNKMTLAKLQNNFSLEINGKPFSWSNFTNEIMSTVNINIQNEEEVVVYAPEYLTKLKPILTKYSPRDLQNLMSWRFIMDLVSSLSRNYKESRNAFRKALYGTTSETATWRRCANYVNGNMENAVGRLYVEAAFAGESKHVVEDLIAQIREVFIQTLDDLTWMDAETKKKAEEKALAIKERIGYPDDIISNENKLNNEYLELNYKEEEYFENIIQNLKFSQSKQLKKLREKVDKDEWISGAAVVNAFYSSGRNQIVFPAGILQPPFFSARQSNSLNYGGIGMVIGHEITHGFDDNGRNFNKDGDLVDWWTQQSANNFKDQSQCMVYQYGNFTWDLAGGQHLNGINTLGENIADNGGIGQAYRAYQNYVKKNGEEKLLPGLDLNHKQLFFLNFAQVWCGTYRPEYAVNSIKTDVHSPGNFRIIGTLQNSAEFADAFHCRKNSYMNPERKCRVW
Assay: In vitro inhibitory activity against neutral endopeptidase (NEP)

IC50 [nM] | Structure (SMILES)
> 1000 | O=C(O)[C@@H](Cc1ccc(-c2ccccc2)cc1)NCP(=O)(O)O
15 | O=C(O)[C@H](Cc1ccc(-c2ccccc2)cc1)NCP(=O)(O)O
